From patent US12233132B2, “Polyoxazoline-lipid conjugates and lipid nanoparticles and pharmaceutical compositions including same” (Serina Therapeutics, Inc., priority 2021, dated 2025)

The chains behind the UniProt entries cited, without tags or fusion partners.
UniProt O00519, whole entry: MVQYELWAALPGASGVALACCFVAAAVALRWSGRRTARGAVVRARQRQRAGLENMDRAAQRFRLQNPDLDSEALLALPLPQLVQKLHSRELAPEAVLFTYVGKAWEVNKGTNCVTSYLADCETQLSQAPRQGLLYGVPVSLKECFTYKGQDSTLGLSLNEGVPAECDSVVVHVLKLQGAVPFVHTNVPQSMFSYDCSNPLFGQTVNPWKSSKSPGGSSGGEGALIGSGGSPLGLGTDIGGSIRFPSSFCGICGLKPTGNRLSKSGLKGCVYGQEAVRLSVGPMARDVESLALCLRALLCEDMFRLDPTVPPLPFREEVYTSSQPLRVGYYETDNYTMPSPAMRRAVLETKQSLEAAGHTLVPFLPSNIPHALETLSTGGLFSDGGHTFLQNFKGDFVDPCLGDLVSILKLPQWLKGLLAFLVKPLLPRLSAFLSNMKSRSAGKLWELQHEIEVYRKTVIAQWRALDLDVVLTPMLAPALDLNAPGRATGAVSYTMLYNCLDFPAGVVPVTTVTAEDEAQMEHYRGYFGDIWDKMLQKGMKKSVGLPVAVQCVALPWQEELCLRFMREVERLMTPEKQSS

Experiments:
[1] = Hydrolysis kinetics of POZ-lipid conjugates in human plasma; type: in vitro ADME; settings: for rate of hydrolysis in plasma, ester versus ether linkages: compared with ether linkages (Compounds 17a, 17b and 17c)
Procedure: (§1) These solutions were spiked into the PBS or rat or human plasma media and allowed to incubate at 37° C. Samples were removed from hydrolysis media at different time intervals and quenched by addition of chilled 0.2% formic acid in methanol. […] The POZ-lipid conjugates were detected by UV absorption at 210 nm, and its breakdown and degradation metabolites were detected followed by mass spectrometry.

[2] = Hydrolysis kinetics of POZ-lipid conjugates in rat plasma; type: in vitro ADME; settings: 37° C.; for Half-Life 50% Rat Plasma: 50% rat plasma diluted in PBS
Procedure: as §1

[3] = molecular target: fatty acid amide hydrolase 1, active human recombinant (FAAH1) (Homo sapiens, UniProt O00519); settings: UV 210 nm
[4] = 50% human plasma, 37° C., extrapolated from a plot using Microsoft Excel
[5] = 50% human plasma diluted in PBS, 37° C.

## PMOZ 5k Dimyristoyl glycerol ether [Compound 17a]
[1]; [4]
  Half-Life 50% Human Plasma: 258** hour
[2]
  Half-Life 50% Rat Plasma: <1 h

## PEOZ-dimyristoyl Glycerol Ether [Compound 17b]
[1]; [4]
  Half-Life 50% Human Plasma: 166** hour
[2]
  Half-Life 50% Rat Plasma: <1 h

## PMOZ 2K DMG Ester [Compound 20a]
[1]; [5]
  Half-Life 50% Human Plasma: 7 h
[1]
  rate of hydrolysis in plasma, ester versus ether linkages: faster rate
[2]
  Half-Life 50% Rat Plasma: 1 h

## PEOZ 2K DMG Ester [Compound 20b]
[1]; [5]
  Half-Life 50% Human Plasma: 10 h
[1]
  rate of hydrolysis in plasma, ester versus ether linkages: faster rate
[2]
  Half-Life 50% Rat Plasma: <1 h

## PEOZ 2K Dimyristoyl glycerol ether [Compound 17c]
[1]; [4]
  Half-Life 50% Human Plasma: 180** hour
[2]
  Half-Life 50% Rat Plasma: 1 h

## PMOZ-dimyristylamide [Compound 15a]
[1]; experiment conducted with 100% Plasma (human), 37° C.
  Half-Life Human Plasma: NRx* (No apparent reaction (hydrolysis) after 120 h)
[3]; With Amidase, overnight at 37° C.
  Peak Area of POZ-DMA Analyte: 771
[3]; time zero
  Peak Area of POZ-DMA Analyte: 1139
[2]; experiment conducted with 100% Plasma (rat)
  Half-Life Rat Plasma: NRx* (No apparent reaction (hydrolysis) after 120 h)

Read-outs that look alike come from different tables or passages of the source. Marks after values point to notes of the source that are not given here.
